Biological target: T1, EIF2AK3 (Homo sapiens, UniProt Q9NZJ5)
T1 construct: purchased Reaction Biology Corp
T1 sequence (Q9NZJ5 30-1116): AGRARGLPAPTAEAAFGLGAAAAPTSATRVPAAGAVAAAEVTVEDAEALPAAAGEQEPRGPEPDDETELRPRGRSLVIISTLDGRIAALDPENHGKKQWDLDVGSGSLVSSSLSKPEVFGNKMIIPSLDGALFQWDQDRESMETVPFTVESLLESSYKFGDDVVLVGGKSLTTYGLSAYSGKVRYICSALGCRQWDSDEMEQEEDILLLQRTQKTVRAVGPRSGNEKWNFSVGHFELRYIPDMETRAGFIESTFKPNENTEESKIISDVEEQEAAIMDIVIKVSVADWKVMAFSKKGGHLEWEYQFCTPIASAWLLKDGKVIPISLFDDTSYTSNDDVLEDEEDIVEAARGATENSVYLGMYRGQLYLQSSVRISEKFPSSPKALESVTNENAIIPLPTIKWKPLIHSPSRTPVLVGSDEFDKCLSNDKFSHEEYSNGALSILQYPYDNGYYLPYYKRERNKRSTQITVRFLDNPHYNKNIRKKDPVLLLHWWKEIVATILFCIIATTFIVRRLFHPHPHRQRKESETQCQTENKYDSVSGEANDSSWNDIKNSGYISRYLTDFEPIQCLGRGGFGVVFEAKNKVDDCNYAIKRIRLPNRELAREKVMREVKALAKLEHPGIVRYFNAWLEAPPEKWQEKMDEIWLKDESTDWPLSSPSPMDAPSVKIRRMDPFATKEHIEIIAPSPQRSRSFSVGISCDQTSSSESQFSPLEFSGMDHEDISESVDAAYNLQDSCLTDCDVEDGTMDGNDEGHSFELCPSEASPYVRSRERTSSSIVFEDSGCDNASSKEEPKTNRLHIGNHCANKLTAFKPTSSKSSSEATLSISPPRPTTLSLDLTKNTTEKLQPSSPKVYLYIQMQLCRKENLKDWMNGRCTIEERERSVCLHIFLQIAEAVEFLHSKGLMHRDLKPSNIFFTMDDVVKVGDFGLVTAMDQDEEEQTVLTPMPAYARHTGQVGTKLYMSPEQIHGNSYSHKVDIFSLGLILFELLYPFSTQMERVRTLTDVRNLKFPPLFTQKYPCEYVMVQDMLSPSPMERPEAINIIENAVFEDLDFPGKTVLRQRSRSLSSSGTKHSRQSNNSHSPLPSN
Test: Kinase panel assay (radiolabelled)
Assay type: biochemical
Conditions: control GSK-2606414
Experimental: Every inhibitory activity of tested compounds was measured by radiolabelled method of Reaction Biology Corp). The radiolabelled ATP ([γ-^33P] ATP) replaced a substrate with ^33P-phosphorylated substrate so that the activity of a kinase was measured from the radiolabelled phosphorylated substrate. Kinase panel assay was tested at 30 μM testing compounds with an ATP concentration of 10 μM and a substrate concentration of 10 μM. % Residual activity against GSK3β was measured at 10 uM compounds 1 and 2. […] Curve fits of control compounds were performed where the enzyme activities at the highest concentration of compounds were less than 65%. The concentration of DMSO was controlled and raw data, % kinase activity was calculated relative to DMSO controls.

## Cn1cc(-c2ccc3c(c2)CCN3C(=O)Cc2cccc(C(F)(F)F)c2)c2c(N)ncnc21 [GSK-2606414, reference compound]
  IC50: 0.54 nM
